In ChEMBL document CHEMBL3217731, “Pharmacokinetics of Agelastatin A in the central nervous system” (Medchemcomm, 2012):

Experiment: Ratio of AUC in C57BL/6J mouse CSF to AUC in C57BL/6J mouse serum
Type: ADME

For CN1C(=O)N[C@H]2[C@@H]3NC(=O)c4ccc(Br)n4[C@@H]3C[C@]21O [AGELASTATIN A], the “Ratio AUC” value was 10.09%.
